# Antibody variant affinities, Ab-14 light chain, assay B

Data: MIT Lincoln Laboratory AlphaSeq set, Li et al. 2023, doi:10.1038/s41467-023-39022-2, as distributed in FLAb.

Target peptide (SARS-CoV-2 spike, HR2 region): PDVDLGDISGINAS

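The starting antibody came from a phage panning campaign against this peptide. The variants were designed computationally from a first round of random CDR variants and then made and measured. Several design methods are mixed in this list. In AlphaSeq, yeast of one mating type display the scFv and yeast of the other type display the target. After mating in shaken culture at 30 °C for 16 h, diploids were selected and their barcode pairs sequenced. Each replicate has its own calibration line, from reference interactions of the BCL2 family. Mating was done six times.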

Parent: Ab-14, a human scFv built as VH, the linker GGGGSGGGGSGGGGS, VL. Only the CDRs of the light chain vary.
VH: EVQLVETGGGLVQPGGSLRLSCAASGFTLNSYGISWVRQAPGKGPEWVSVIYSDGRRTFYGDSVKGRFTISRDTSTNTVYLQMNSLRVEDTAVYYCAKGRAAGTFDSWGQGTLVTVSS
VL: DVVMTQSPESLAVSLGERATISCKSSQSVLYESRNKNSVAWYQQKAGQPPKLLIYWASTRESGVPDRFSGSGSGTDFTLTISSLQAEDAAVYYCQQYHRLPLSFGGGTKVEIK

Variants are written as CDR1, CDR2 and CDR3 of the light chain (limits as in the source). Parent: KSSQSVLYESRNKNSVA, WASTRES, QQYHRLPLS. Variants here have more than six changes. Kd is apparent (estimated from mating counts) and averaged on the log scale over replicates with a signal. Smaller is tighter. An entry "nd" has no value in the source: the pair was not observed among the diploids in any replicate. This suggests poor binding but is not conclusive.

The variant RLQAHMYDDQEHVNAIA / AGHDRAK / QQYQRLPLS gave 20 nM (6 of 6 replicates; controls 2 of 18). With KVVKAKSEGDRHAANVA / NANKATD / QQYYRLPLA the result was 4.3 nM (6 of 6 replicates; controls 3 of 18). The variant KVPQSNLYESRNANNVA / SASTRLS / QQYHRLPLS gave 430 pM (6 of 6 replicates; controls 0 of 18). The variant MVSQLMVWGMHKKNSIA / EAQTRCN / QQYDRLPLF showed 170 nM (6 of 6 replicates; controls 0 of 18). The variant HITMGMYVAGRHHSSIA / QAETRAK / QQYDRLPLS gave 35 nM (6 of 6 replicates; controls 0 of 18). With KLSDNQYAIDQDKHAIA / EGHSTEM / QQYMRLPLT the result was 1.3 nM (6 of 6 replicates; controls 1 of 18). For KLMQSSGYDSRNKNSVA / QASTRMS / QQYHRLPLS, the assay gave 1.5 nM (6 of 6 replicates; controls 0 of 18).

For ALTNEPESVDHHKNNVA / STSKRCM / QQYARLPLS, the assay gave 2.7 nM (6 of 6 replicates; controls 1 of 18). For KCDQWVFYGDRWKNSVA / NASTREQ / QQYHRLPLS, the assay gave 23 nM (6 of 6 replicates; controls 2 of 18). The variant KLSSSWLMESRNMNSVA / QASQRLR / QQYHRLPLS gave 2.1 nM (6 of 6 replicates; controls 1 of 18). The variant KLSMSYRYESENKNSIA / ELVTRAS / QQYHRLPLS gave 2.6 nM (6 of 6 replicates; controls 1 of 18). The variant MVTQMAMTGMTNKRSVA / NAETREY / QQYHRLPLI showed nd (0 of 6 replicates; controls 1 of 18). For SLRAMILDWDNKMQNIA / DVHMREQ / QQYNRLPIV, the assay gave 2.9 nM (6 of 6 replicates; controls 1 of 18). The variant NLNTEYVTGTSNWNNIA / HGSMVEA / QQYFQLPIQ showed 4.5 nM (6 of 6 replicates; controls 1 of 18).

For KLRQVTGYESYLRNNVA / QMSTRAE / QDYHRLPLS, the assay gave 2.2 nM (6 of 6 replicates; controls 1 of 18). With KLSVSYYFEQLEKNSIA / ENSTREK / QHYHRLPLS the result was nd (0 of 6 replicates; controls 0 of 18). The variant FLSQSWDYEDRPKNSVA / NASTRMS / QQYHRLPLS showed 1.1 nM (6 of 6 replicates; controls 1 of 18). With HSSESVLSESRNQNSVA / NASTREI / QQYHILPLS the result was 15 nM (6 of 6 replicates; controls 2 of 18). With SLVQKADYMDSERNNIA / NGRLRNE / QQYFHLPLT the result was 2.4 nM (6 of 6 replicates; controls 0 of 18). For KISQSYLMESRNCNSVA / NASTRLW / QQYHRLPLS, the assay gave 1.9 nM (6 of 6 replicates; controls 1 of 18). The variant KIEQSLFPYGPSWHSIA / NANTLLA / QQYYMLPLM gave 27 nM (6 of 6 replicates; controls 0 of 18).

For KLTAAPNDYGQNRSAIA / EEVNSLQ / QQYHHLPLS, the assay gave 65 nM (1 of 6 replicates; controls 0 of 18). The variant QLQFEDVQYGVNEQAIA / EENQRMQ / QHYFRLPLI showed 1.4 µM (4 of 6 replicates; controls 0 of 18). The variant HVSSMLMAGGGIINSVA / GNKLLER / QQYMRLPLS showed 2.6 nM (6 of 6 replicates; controls 1 of 18). The variant MIAQGLRGLGRNKNSVA / NAQTRES / QHYHRLPLS gave 7.7 nM (6 of 6 replicates; controls 0 of 18). With KFMQSMGYESRNQNSVA / DASTRMS / QQYHRLPLS the result was 220 pM (6 of 6 replicates; controls 0 of 18). The variant IVSQLMMWGMHAKNSIA / EAVTRYN / QQYDRLPLF showed nd (0 of 6 replicates; controls 1 of 18). With ALNQKGFQLHGMRDSIA / HSDTRLA / QQYYRLPLA the result was 7.1 nM (6 of 6 replicates; controls 0 of 18).

With KLMQSWDYESRNKNSVA / DASKRSQ / QQYHRLPLS the result was 2.3 nM (6 of 6 replicates; controls 1 of 18). With KCQISVEQLSRQKNSVA / HASTRES / QQYHRLPLS the result was 2.8 nM (6 of 6 replicates; controls 1 of 18).

A sequence measured in both rounds can read differently, since the two assays cover different ranges. Empty control strains, which show no peptide, gave a signal in 4% of pairings with all light chain designs; the median was 430 nM and 95% of these signals were weaker than 38 nM. No background was subtracted. The control count says in how many pairings with the empty strains this scFv gave a signal. Of ten entries with the parent sequence, four were seen in most replicates (averages 2.2 nM to 240 nM), three in one and three in none, so single entries are noisy. The authors averaged sequences with at least three values out of six and counted those with two or fewer as poor binders.